Assay results from article PMC8596843, “Platinum Cyclooctadiene Complexes with Activity against Gram‐positive Bacteria” (Chemmedchem, 2021).

Tested on: human red blood cells
Assay: Haemolysis assay
Type: cell-based
Conditions: concentration inducing 50 % haemolysis
Experimental: As part of the CO‐ADD screening, all compounds that show any activity against a microbial strain are evaluated for their cytotoxicity against human embryonic kidney cells (HEK‐293) and for haemolysis against human red blood cells. None of the compounds tested for cytotoxicity (Pt1‐9 and Pd1) caused any significant cell death up to concentrations of 100 μM. […] We have also observed higher IC50 values for the methylated complexes Pt3 and Pt4 against HeLa cells in previous work.[16]
The resultant mid-log phase cultures were diluted
Gram-negative and Gram-positive bacteria, respectively.
final concentration range of 0.8 – 100 µM.
inhibitors as positive control.
Tamoxifen (Sigma T5648) was used
as internal control on each plate.
in a Neubauer haemocytometer.
incubated for 1 h at 37 °C, without shaking.
HC10 and HC50 (concentration at which 10%
for top, bottom and slope using Prism 8. […]

For CC[C@H](C)[C@H](NC(=O)CN)C(=O)NCC(=O)N[C@@H](C)C(=O)N[C@H](C(=O)N[C@@H](CC(C)C)C(=O)N[C@@H](CCCCN)C(=O)N[C@H](C(=O)N[C@@H](CC(C)C)C(=O)N[C@H](C(=O)N[C@H](C(=O)NCC(=O)N[C@@H](CC(C)C)C(=O)N1CCC[C@H]1C(=O)N[C@@H](C)C(=O)N[C@@H](CC(C)C)C(=O)N[C@H](C(=O)N[C@@H](CO)C(=O)N[C@@H](Cc1c[nH]c2ccccc12)C(=O)N[C@H](C(=O)N[C@@H](CCCCN)C(=O)N[C@@H](CCCNC(=N)N)C(=O)N[C@@H](CCCCN)C(=O)N[C@@H](CCCNC(=N)N)C(=O)N[C@@H](CCC(N)=O)C(=O)N[C@@H](CCC(N)=O)C(N)=O)[C@@H](C)CC)[C@@H](C)CC)[C@@H](C)O)[C@@H](C)O)C(C)C)C(C)C [Melittin, reference compound], which “Haemolysis HC50” value is on record?
Its value is 1.82 µM.
